Here are results for 1 substance from patent US20060165769A1, “Pharmaceutical formulations containing vitamin E TPGS molecules that solubilize lipophilic drugs without significant efflux inhibition, and use of such formulations” (priority 2004, published 2006).

Series [1] is described as follows: Critical micellar concentration in water by surface tension. To be noted: inflection point of surface tension vs concentration. It counts as physicochemical. On the procedure:
A series of TPGS analogs were synthesized by methods similar to those used to synthesize TPGS 1000, differing only in the molecular weight of the polyethylene glycol (PEG) chain. Solutions were prepared of various known concentrations of these derivatives in water. Surface tension of these solutions were measured, and plotted against the concentration of the TPGS. […] The concentration at this inflection point is defined as the critical micellar concentration (CMC) of the particular TPGS in water. The following is a table of the measured CMC's versus the molecular weight of the PEG chain.

In series [2] the test system is Caco-2 monolayers (efflux transport of Rhodamine 123). In words: Inhibition Protocol: Rhodamine 123 transport across Caco-2 monolayers in the presence of TPGS analog. In kind it is cell-based. The procedure: As used herein, the term “Inhibition Protocol” or “inhibition protocol” refers to the following test. The test is carried out using Caco-2 (C2BBe1 or HTB-37) monolayers which are known to be a good in vitro model for gastrointestinal epithelial cells. The following describes the inhibition protocol: Caco-2 cells, clone C2BBe1, from passages 48-92 are used. Cells are grown to ˜90% confluent in 75 cm^2 T-flasks with Dulbecco's modified Eagle's medium (DMEM) supplemented with 10% fetal bovine serum (FBS) and 1% non-essential amino-acids. Cells are grown at a temperature of ˜37° C. in an atmosphere of ˜85% relative humidity and ˜5% CO2. Cells are seeded on top of Transwell® inserts (pore size 0.4 μm, 1.13 cm^2) at a density of ˜60,000 cells/cm^2. […]
Rhodamine 123 (RHO) transport is assessed in absorptive (apical to basolateral, Ap→BI) and secretory (BI→Ap) directions. […]
Monolayers are agitated using an orbital shaker at ˜100±20 rpm. […] To ensure integrity of the monolayers, TEER values were measured on the day of the experiment and at the end of the experiment.
Apparent permeability (Papp) was calculated according to: Papp=(dQ/dt)*(1/A)*(1/Co)
where A (cm^2) is the nominal surface area of the monolayer and C0 (μg/mL) is the RHO concentration in the donor compartment at t=0. Relative change of Papp(cm/s)was calculated according to the equation: rel. increase/decrease=|(1−Papp(TPGS)/Papp(RHO))*100|. […]

Substance “d-α-tocopheryl polyethylene glycol succinate [TPGS 1000]” displayed a CMC in series [1] of 0.02 ± 0.02 Wt. %. In series [2] (Inhibition Protocol, 33 μM), the “Inhibition of efflux transport of Rhodamine 123 in Caco-2 monolayers (in words)” value is on record as “effectively inhibited efflux transport”. Also, the “Ratio, Papp(B − A)/Papp(A − B)” value in series [2] (Rhodamine 123 efflux ratio, TPGS analog 33 μmolar, control 17.9) was 2.58.
